Results from paper PMC11374477 (Journal of the American Chemical Society, 2024).

Protein sequences, listed by entry. Tags and fused reporters are not part of them. Residues count along the entry.
UniProt Q9XJ43, 1-343: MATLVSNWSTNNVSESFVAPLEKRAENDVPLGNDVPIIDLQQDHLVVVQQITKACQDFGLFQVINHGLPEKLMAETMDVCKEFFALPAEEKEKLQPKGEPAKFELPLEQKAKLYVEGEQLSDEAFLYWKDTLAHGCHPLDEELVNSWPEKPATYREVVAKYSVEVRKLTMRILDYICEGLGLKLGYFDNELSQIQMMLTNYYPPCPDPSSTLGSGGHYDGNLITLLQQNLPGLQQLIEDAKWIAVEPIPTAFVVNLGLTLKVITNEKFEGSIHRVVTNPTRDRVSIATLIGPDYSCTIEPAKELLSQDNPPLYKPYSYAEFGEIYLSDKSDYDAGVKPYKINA

Target: AbH6H (Atropa belladonna, UniProt Q9XJ43)
Conditions: Fe(II)-succinate-Sco product complex

SMILES: CN1[C@@H]2CC(OC(=O)[C@H](CO)c3ccccc3)C[C@H]1[C@@H]1O[C@@H]12 (stereo partly shown) [Sco, scopolamine]
- X-ray crystallography: we also solved the structure of the AbH6H•Fe^II•succ•Sco product complex
